Tested on: SLT2p over-producing strain (BY4741 with GAL1 promoter SLT2 ORF plasmid)
Test: Growth yield of SLT2p over-producing strain in galactose medium with isobutanol
Conditions: SLT2p over-producing strain vs BY4741; 1 wt % isobutanol

Compound: CC(C)CO [isobutanol]
- improvement in growth yield over the parental strain: 29%
